Active and inactive are the calls of the source. No cut-off for these calls is given here.
Target: Hepatocyte growth factor receptor (Homo sapiens, UniProt P08581)
Experiment: Inhibition of GST-tagged human c-Met expressed in SF9 cells at 10 uM

Sequences of proteins named here, by UniProt entry; tags and fusion partners are left off. A change or cut given only in a name is not applied to a line headed by its entry.
UniProt P08581: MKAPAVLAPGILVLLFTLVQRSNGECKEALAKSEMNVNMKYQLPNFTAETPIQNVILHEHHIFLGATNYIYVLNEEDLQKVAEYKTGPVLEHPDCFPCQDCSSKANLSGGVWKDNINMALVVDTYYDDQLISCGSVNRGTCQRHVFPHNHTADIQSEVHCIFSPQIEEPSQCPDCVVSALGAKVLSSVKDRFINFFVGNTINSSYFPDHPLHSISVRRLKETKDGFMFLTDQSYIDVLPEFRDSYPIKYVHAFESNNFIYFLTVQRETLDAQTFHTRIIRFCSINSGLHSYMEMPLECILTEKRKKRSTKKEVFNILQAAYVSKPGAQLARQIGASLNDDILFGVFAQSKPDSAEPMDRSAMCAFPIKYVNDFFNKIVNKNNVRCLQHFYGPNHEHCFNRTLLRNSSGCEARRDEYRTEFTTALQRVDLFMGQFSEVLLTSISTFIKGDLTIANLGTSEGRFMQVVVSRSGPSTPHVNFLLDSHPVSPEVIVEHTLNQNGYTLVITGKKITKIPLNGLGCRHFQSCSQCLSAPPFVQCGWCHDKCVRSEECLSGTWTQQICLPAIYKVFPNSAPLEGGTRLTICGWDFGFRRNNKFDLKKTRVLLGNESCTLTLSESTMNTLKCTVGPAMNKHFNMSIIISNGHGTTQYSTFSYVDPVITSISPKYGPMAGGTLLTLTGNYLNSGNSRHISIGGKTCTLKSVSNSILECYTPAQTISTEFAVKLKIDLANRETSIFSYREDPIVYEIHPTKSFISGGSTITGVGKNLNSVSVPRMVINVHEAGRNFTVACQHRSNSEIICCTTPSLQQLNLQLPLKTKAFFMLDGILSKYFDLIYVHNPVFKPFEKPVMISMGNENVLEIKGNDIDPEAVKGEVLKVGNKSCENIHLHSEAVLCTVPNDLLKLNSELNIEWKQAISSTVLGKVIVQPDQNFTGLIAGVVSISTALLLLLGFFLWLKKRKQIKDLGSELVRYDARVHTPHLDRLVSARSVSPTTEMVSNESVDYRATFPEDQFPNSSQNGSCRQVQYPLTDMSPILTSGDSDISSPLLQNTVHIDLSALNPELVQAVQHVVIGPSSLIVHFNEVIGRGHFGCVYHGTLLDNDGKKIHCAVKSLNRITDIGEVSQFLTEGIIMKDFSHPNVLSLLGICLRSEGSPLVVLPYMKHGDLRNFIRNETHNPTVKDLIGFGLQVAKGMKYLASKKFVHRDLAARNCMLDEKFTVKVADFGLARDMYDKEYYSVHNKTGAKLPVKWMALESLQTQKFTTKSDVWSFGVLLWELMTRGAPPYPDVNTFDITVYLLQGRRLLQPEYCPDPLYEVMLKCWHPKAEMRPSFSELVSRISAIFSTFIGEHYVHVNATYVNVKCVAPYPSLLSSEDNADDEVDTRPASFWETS

N#Cc1ccc2[nH]c(-c3ccccc3)c(-c3ccc(F)cc3)c2n1
Activity: inactive

CS(=O)(=O)c1ccc(-c2c(-c3ccncc3)[nH]c3ccc(C#N)nc23)cc1
Activity: inactive

N#Cc1ccc2[nH]c(-c3ccncc3)c(-c3ccncc3)c2n1
Activity: inactive

N#Cc1ccc2[nH]c(-c3ccncc3)c(-c3cnc(N)nc3)c2n1
Activity: inactive

From ChEMBL document CHEMBL1153352, “Syntheses of novel 2,3-diaryl-substituted 5-cyano-4-azaindoles exhibiting c-Met inhibition activity” (Bioorg Med Chem Lett, 2009)
